This assay concerns the target ENL YEATS domain (6×HIS ENL YEATS Domain) binding to H3K9cr peptide (Homo sapiens, UniProt Q03111). The assay is described as follows: TR-FRET ENL Screening Assay, FRET Assay Protocol 1. Particulars: read-out: ENL FRET, H3K9cr peptide (aa1-20). (In general: TR-FRET usually uses a lanthanide donor and a delayed reading to cut background.)

Chains of the proteins cited; added tags and fusions are not shown. Residues count along the entry.
UniProt Q03111, 1-150 limits assumed: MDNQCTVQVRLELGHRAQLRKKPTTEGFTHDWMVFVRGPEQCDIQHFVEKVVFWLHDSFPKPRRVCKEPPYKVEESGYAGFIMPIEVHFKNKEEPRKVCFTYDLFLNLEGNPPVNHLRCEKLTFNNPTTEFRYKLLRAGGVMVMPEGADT

The structures appear in SMILES notation.

We go through one molecule from patent US20230027198A1 (The Rockefeller University, priority 2019, published 2023).

Regarding `C[C@H]1CCCN1Cc1cc2cnc(NC(=O)c3ccc4[nH]c(=O)ccc4c3)cc2[nH]1`, the IC50 amounted to 193 nM.
